## Measured water solubility values of organic chemicals

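These are experimental values that the OPERA curators gathered from public databases to train and test their QSAR models. One number stands for a compound and property, with no spread given. Conditions of the individual experiments are not part of the data. The measured form (salt, isomer or mixture) is not always the one drawn. Unmarked limits or estimates from the upstream databases cannot be ruled out.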

Solubility in water is on a log10 molar scale (set defined at 25 °C).

compound	water solubility (log10 mol/L)
C[C@]12CC[C@@H]3c4ccc(OS(=O)(=O)O)cc4CC[C@H]3[C@@H]1CC[C@@H]2O	-4.991
CC[C@H](C)C(=O)O[C@H]1C[C@H](O)C=C2C=C[C@H](C)[C@H](CC[C@@H](O)C[C@@H](O)CC(=O)O)[C@H]21	-3.244
CCC(=O)C(C)C(=O)O (configuration not stated)	-0.637
CC1(C)COC(C)(CCCc2ccc(Cl)cc2)N1C(=O)n1ccnc1.CC1(C)COC(C)(CCCc2ccc(Cl)cc2)N1C(=O)n1ccnc1.O=C(O)/C=C/C(=O)O (stereo partly drawn)	-3.73
CC(=O)C(N=Nc1cc(Cl)c(-c2cc(Cl)c(N=NC(C(C)=O)C(=O)Nc3ccc(C)cc3C)cc2Cl)cc1Cl)C(=O)Nc1ccc(C)cc1C (configuration not stated)	-8.463
CC(=O)Nc1ccc(F)cc1Br	-2.043
COc1cc(OC)nc(Sc2cccc3c2C(=O)OC3C)n1 (configuration not stated)	-5.25
NS(=O)(=O)c1cc2c(s1)SCCC2O (configuration not stated)	-2.594
CCC[C@H]1CC[C@H](c2cccc(F)c2)CC1	-7.355
CC(C)C(=O)Nc1nc(-c2ccc(O)cc2O)cs1	-4.066
CC(=O)c1cccc2ccccc12	-3.086
NC(=O)c1ccccc1Cl	-0.883
CC(=CCCC=O)CCCC(C)C	-4.091
CCCCCCCCCCCCCCCCCCSSCCCCCCCCCCCCCCCCCC	-6.058
C=CC(=O)OC(C)CCCCCC (configuration not stated)	-4.14
Clc1ccc(Oc2ccc(Cl)c(Cl)c2Cl)cc1Cl	-7.67
Nc1ccc2c(S(=O)(=O)O)cccc2c1	-2.83
O=COCc1ccccc1	-1.673
CCO[Si](CCC1CCC2OC2C1)(OCC)OCC (configuration not stated)	-2.533
O=S(=O)([O-])c1cc(Nc2nc(Nc3ccccc3)nc(Nc3ccccc3)n2)ccc1/C=C/c1ccc(Nc2nc(Nc3ccccc3)nc(Nc3ccccc3)n2)cc1S(=O)(=O)[O-].[Na+].[Na+]	-3.826
CCCCC1CCC(=O)O1 (configuration not stated)	-1.245
CN1[C@@H]2CCC[C@H]1C[C@@H](NC(=O)c1nn(C)c3ccccc13)C2	-2.857
O=CCC/C=C1\CC2CC1C1CCCC21 (stereo partly drawn)	-4.09
CC1C(=O)CCC2C(O)CCC(O)C12 (configuration not stated)	-0.297
O=C1CCC(=O)[C@H]2[C@@H]1[C@H]1CC[C@@H]2C1=C(Cl)Cl	-4.474
CC1C2CC(CC2C2CCCC(O)C2)C1(C)C (configuration not stated)	-4.602
N[C@@H](COP(=O)(O)O)C(=O)O	-0.416
CC(C)(C=O)CC1=CCC2CC1C2(C)C (configuration not stated)	-4.281
Clc1ccc2ncoc2c1	-2.323
Nc1nc(CC(=O)O)cs1	-2.09
O=C(O)CCNC(=O)c1ccc(/N=N/c2ccc(O)c(C(=O)O)c2)cc1	-2.344
NC(=O)NNC(N)=O	-2.696
c1ccc([C@H]2CN3CCSC3=N2)cc1	-2.26
O=C(O)C1c2ccccc2Cc2ccccc21	-2.351
CCCCCOC(=O)c1ccc(N)cc1	-3.305
Cl.N=C1C=CC(=C(c2ccc(N)cc2)c2ccc(N)cc2)C=C1	-1.979
CO[C@H]1C[C@H](O[C@H]2[C@H](C)O[C@@H](O[C@@H]3C(C)=CC[C@@H]4C[C@@H](C[C@]5(C=C[C@H](C)[C@@H](C6CCCCC6)O5)O4)OC(=O)[C@@H]4C=C(C)[C@@H](O)[C@H]5OCC(=CC=C[C@@H]3C)[C@]54O)C[C@@H]2OC)O[C@@H](C)[C@@H]1O	-7.561
CC(=O)c1cccc(O)c1	-1.534
C=CC(=O)OC1CC(C)CC(C)(C)C1 (configuration not stated)	-4.03
O=C1NC(=O)C(c2ccc(O)cc2)N1 (configuration not stated)	-2.173
CN(C)C=C1OC(=O)C(C#N)=C1c1ccccc1	-1.12
C=CCOC(=O)COc1ccccc1	-2.536
Nc1cnc2c(N)ncnc2n1	-2.909

The 6 highest values of water solubility among the entries above:

compound	water solubility (log10 mol/L)
CC1C(=O)CCC2C(O)CCC(O)C12 (configuration not stated)	-0.297
N[C@@H](COP(=O)(O)O)C(=O)O	-0.416
CCC(=O)C(C)C(=O)O (configuration not stated)	-0.637
NC(=O)c1ccccc1Cl	-0.883
CN(C)C=C1OC(=O)C(C#N)=C1c1ccccc1	-1.12
CCCCC1CCC(=O)O1 (configuration not stated)	-1.245

Values as listed in the OPERA 2.9 repository of K. Mansouri.